# Ab-14 light chain CDR variants: yeast mating affinities

The measurements come from Li et al. 2023 (doi:10.1038/s41467-023-39022-2) through the FLAb antibody collection.

The target is the same throughout: PDVDLGDISGINAS, from the HR2 region of SARS-CoV-2 spike.

Ab-14 is the parent antibody, in scFv form: VH, then the linker GGGGSGGGGSGGGGS, then VL. The heavy chain is unchanged in all variants.
VH: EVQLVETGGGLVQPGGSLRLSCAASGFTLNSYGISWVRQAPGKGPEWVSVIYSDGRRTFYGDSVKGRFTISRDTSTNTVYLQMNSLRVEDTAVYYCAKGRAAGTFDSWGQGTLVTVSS
VL: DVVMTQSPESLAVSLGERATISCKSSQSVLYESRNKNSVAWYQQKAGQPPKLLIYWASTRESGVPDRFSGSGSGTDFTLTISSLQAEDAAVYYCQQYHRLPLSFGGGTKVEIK

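The starting antibody came from a phage panning campaign against this peptide. This is the validation round: designs drawn from the data on random variants, tested in the same kind of assay. Group labels follow the data file (En: ensemble of fine-tuned language models; GP: Gaussian process model; HC: hill climbing; Gen: genetic algorithm; Gibbs: Gibbs sampling; a sequence that several methods proposed may carry one label only). The assay is AlphaSeq: two haploid yeast populations carry antibody and antigen on their surface. Pairs that bind mate more often; barcode pairs of the diploids are counted by sequencing. A regression on co-assayed BCL2-family reference pairs converts the normalised counts of each replicate to an apparent Kd. Each pool was mated in six replicate cultures.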

The parent's light chain CDRs are KSSQSVLYESRNKNSVA, WASTRES, QQYHRLPLS; each variant's own CDRs replace them letter for letter.
This list holds designs with more than six substitutions.
Scale: log10 of Kd in nM, estimated from mating counts; low values are strong binders.
A mean of the replicates is given; it leaves out those without a signal.
An entry "no signal" has no value in the source: the pair was not observed among the diploids in any replicate. This suggests poor binding but is not conclusive.

* KMSPSELYQDRNKNAVA | QASQRES | QQYHRLPLS [GP_Gibbs] -> -0.30 (6 of 6 replicates)
* KLMQSDLYESRNVNNVA | QASQREL | QQYHRLPLS [GP_Gibbs] -> 0.59 (6 of 6 replicates)
* IISQVDDYLMHNTNSIA | DQTTRGS | QQYDRLPLS [En_HC] -> 2.14 (5 of 6 replicates)
* MIGEMLMAGQYKINSVA | QANLRAE | QHYNRLPLE [En_Gen] -> 0.27 (6 of 6 replicates)
* KLTMITGTEKVHGNNVA | EMETREN | QQYNRLPLA [En_Gen] -> 1.09 (6 of 6 replicates)
* NLSIQCQHQNMSANAVA | QTEIRCE | QQYAQLPLA [En_Gibbs] -> 1.38 (6 of 6 replicates)
* KIGSGTNGEKFESNSVA | QTSTREE | QQYHRLPLS [En_HC] -> 0.41 (6 of 6 replicates)
* KLLQEVTGRTQNRNSVA | HNSTRED | QQYDRLPLI [En_HC] -> 0.44 (6 of 6 replicates)
* KIRVQQYSQSEMEDNIA | QESTRHQ | QQYFRLPLS [En_Gibbs] -> 1.02 (6 of 6 replicates)
* HLGWATMLEETVRNSVA | NNSTREE | QQYDRLPLS [En_Gen] -> 3.00 (1 of 6 replicates)
* MMSQVTGQGQRHRNNVA | QTTTREP | QQYDRLPLV [En_Gen] -> 1.02 (6 of 6 replicates)
* HLGLATMLEEYVRNSVA | NNSTREQ | QQYDRLPLS [En_Gen] -> no signal (0 of 6 replicates)
* KLQQSDLYESRNKNNVA | NASLREQ | QDYHRLPLS [GP_Gibbs] -> -0.39 (6 of 6 replicates)
* KLQMSVMMESRWCNSVA | QASTREE | QQYHRLPLS [GP_Gibbs] -> 0.66 (6 of 6 replicates)
* RVQIWSGHSDMHWKSIA | SASLRAQ | QQYARLPLE [En_Gibbs] -> 1.25 (6 of 6 replicates)
* ILMQPQKELGAAKDNIA | DGSIRLD | QQYHRLPLV [En_Gibbs] -> 0.14 (6 of 6 replicates)
* TIGGTLMMGYKQRSNVA | EVSQRLN | QQYDRLPLM [En_Gen] -> 0.99 (6 of 6 replicates)
* KLTSITGTEKVHGNSVA | EMATRER | QQYNRLPLA [En_Gen] -> 0.11 (6 of 6 replicates)
* TIAQSVNMTSHGRNSVA | QAEMRES | QQYDRLPLS [En_HC] -> 2.36 (3 of 6 replicates)
* KITTSLYRWGSDKQAVA | EENIRAR | QQYFRLPFS [En_Gibbs] -> 0.38 (6 of 6 replicates)
* QLSMITGHVSMTKNNVA | EMETREN | QQYDRLPLS [En_Gen] -> -0.05 (6 of 6 replicates)
* KLQNFSQEDNKMWNNIA | DMTMVHT | QQYNRLPLE [En_Gibbs] -> 0.55 (6 of 6 replicates)
* KIGQQVTYESTNKNAIA | QMTTREA | QQYHRLPLS [En_HC] -> 0.06 (6 of 6 replicates)
* HLSQSVEGEESNKNSVA | SASTREQ | QQYHRLPLS [GP_Gibbs] -> 1.07 (6 of 6 replicates)
* NIYQAMHTLSQMKDNVA | DVNERGN | QQYYRLPLS [En_Gen] -> 0.21 (6 of 6 replicates)
* KASPSEEYESRNKNSVA | HASLRLE | QQYHRLPLS [GP_Gibbs] -> 0.37 (6 of 6 replicates)
* KVSQLNLYESRNANNVA | NGSLRES | QQYHRLPLS [GP_Gibbs] -> -0.12 (6 of 6 replicates)
* MIAESVGYQSRQKNSVA | DNSTRED | QCYDRLPLS [En_HC] -> 2.59 (6 of 6 replicates)
* MISQVMNTLTRNGQNVA | DLQNRED | QQYFRLPLS [En_Gen] -> 0.90 (6 of 6 replicates)
* KGMGSMLYEQRNKNSVA | NASQRMS | QQYHRLPLS [GP_Gibbs] -> -0.26 (6 of 6 replicates)
* VLPDPTMRFDFQGNSIA | NAVARME | QQYERLPLT [En_Gibbs] -> 1.00 (6 of 6 replicates)
* QLFHRWGQLDNIQYNVA | NATTVID | QQYMRLPLT [En_Gibbs] -> 0.55 (6 of 6 replicates)
* TISQVMNTLTRHGNNVA | DLQEREE | QQYFRLPLS [En_Gen] -> no signal (0 of 6 replicates)
* SLMQVGGYESNAHNSIA | DLRTRED | QQYHRLPLS [En_HC] -> 1.12 (6 of 6 replicates)
* TIGQSVHETSRIKNSVA | HATTRED | QQYDRLPLS [En_HC] -> -0.13 (6 of 6 replicates)
* NFSQMVSTGMTLRNSVA | HASTRFN | QQYHRLPLM [En_HC] -> 2.36 (3 of 6 replicates)
* NLSIEMSYYYENRYNIA | EMTVREY | QYYSRLPLA [En_Gibbs] -> 1.56 (4 of 6 replicates)
* MISQLMNLGQFAINSVA | QAEIRNA | QQYDRLPLA [En_Gen] -> 1.34 (6 of 6 replicates)
* KVPQSNLYEARNANNVA | SASTRLS | QQYHRLPLS [GP_Gibbs] -> 0.01 (6 of 6 replicates)
* KVQMQKLYWSRNKNSVA | EASTRES | QQYHRLPLS [GP_Gibbs] -> 0.01 (6 of 6 replicates)

Values of this round are not directly comparable with the first-round values of the same sequences.
The parent sequence was in this pool as ten entries: three were never detected, three once, and four in most replicates, with averages from 0.34 to 2.37.
The authors averaged sequences with at least three values out of six and counted those with two or fewer as poor binders.
Nonspecific signal, from three strains lacking the peptide, appeared in 4% of pairings of all light chain designs, centred on 2.64 (5% of these signals below 1.59); values are not corrected for it.